US20200392108A1, “ANTIBODY-DRUG CONJUGATES AND RELATED COMPOUNDS, COMPOSITIONS AND METHODS” (Magenta Therapeutics, Inc., priority 2011, published 2020)

Tests used:
[1] = system: HER2-positive tumor cells; experiment: Cytotoxicity of trastuzumab ADCs compared to trastuzumab, HER2-positive tumor cells; format: cell-based
BT474 cell xenograft = BT474 cell xenograft model; format: in vivo, mice (Taconic C.B-17 scid); conditions: once intravenously 1 mg/Kg, control HB121 plus free MMAF or T4
[2] = system: BT474 (HER2+ human breast carcinoma) cell line; experiment: Cell proliferation assay (ATPLite), BT474; format: cell-based; conditions: BT474 cells, 3 days, ATP level; relative to each other and to parent trastuzumab antibody

Substance	IC50 [1] [nM]	TGI compared to the control (BT474 cell xenograft)	potency for inhibition of tumor cell growth [2]
trastuzumab: recombinant humanized monoclonal anti-HER2 antibody	> 500	significant TGI compared to the control	–
trastuzumab-MC-T4	–	significant TGI compared to the control	approximately equipotent and considerably more potent than the parent trastuzumab antibody
trastuzumab-dTSPEG-T4	–	significant TGI compared to the control	approximately equipotent and considerably more potent than the parent trastuzumab antibody
